Amino acid sequences for entries named in this document (tags omitted). A change or cut given only in a name is not applied to a line headed by its entry.
UniProt P52500: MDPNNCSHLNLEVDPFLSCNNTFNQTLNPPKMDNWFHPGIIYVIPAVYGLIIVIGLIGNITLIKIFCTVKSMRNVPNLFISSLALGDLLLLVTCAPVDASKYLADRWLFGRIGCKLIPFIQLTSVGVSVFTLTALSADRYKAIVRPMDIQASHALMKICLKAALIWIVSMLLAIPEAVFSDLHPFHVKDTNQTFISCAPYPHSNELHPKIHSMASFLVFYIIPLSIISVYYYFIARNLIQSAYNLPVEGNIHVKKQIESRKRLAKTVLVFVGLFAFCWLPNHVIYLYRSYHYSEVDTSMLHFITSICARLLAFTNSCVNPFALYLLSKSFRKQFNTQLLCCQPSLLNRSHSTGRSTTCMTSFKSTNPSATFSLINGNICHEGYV
UniProt P21729: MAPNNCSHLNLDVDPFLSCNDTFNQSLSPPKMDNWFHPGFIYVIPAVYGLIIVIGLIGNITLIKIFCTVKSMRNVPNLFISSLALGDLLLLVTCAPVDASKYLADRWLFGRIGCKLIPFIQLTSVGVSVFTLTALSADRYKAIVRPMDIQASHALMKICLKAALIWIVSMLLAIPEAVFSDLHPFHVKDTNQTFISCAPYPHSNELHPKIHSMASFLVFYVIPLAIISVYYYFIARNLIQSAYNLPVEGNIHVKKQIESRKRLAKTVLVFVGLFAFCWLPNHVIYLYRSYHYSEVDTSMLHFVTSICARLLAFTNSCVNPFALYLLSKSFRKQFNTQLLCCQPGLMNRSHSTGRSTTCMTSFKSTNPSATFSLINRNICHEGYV

In patent US20170224778A1, “COMPOSITIONS AND METHODS THAT TARGET REGULATION OF BREATHING” (The Board of Trustees of the Leland Stanford Junior …, priority 2016, published 2017):

Tests used:
[1] = target: T1, GRPR (Rattus norvegicus, UniProt P52500); experiment: Sighing and breathing of urethane-anesthetized rats after bilateral preBötC injection (GRP pathway); assay type: in vivo; details: 100 nl, 3 μM injected bilaterally into preBötC, n=5
T1 construct: from tissue; host or cells: preBötC of the ventral medulla of living anesthetized Sprague Dawley rats

[2] = target: T2, GRPR (Mus musculus, UniProt P21729); experiment: Doublets (in vitro sigh signature) in explanted preBötC brain slices, GRP effect; assay type: cell-based
T2 construct: doublet rate increased following application of NMB or GRP to preBötC slice preparations; from tissue; host or cells: 550-μm transverse medullary slices with the preBötC, neonatal C57BL/6 mice (P0-5)
Protocol: In vitro slice preparation, recording, and analysis. Rhythmic 550-μm-thick transverse medullary slices containing the preBötC and XII nerve from neonatal C57BL/6 mice (P0-5) were prepared as described previously (Kam et al., 2013). The medullary slice was cut in artificial cerebrospinal fluid (ACSF) containing (in mM): 124 NaCl, 3 KCl, 1.5 CaCl2, 1 MgSO4, 25 NaHCO3, 0.5 NaH2PO4, and 30 D-glucose, equilibrated with 95% O2 and 5% CO2 (4° C., pH=7.4). For recording, extracellular K+ was raised to 9 mM to replace excitatory afferent drive lost in the cutting process. Slices were perfused at 27° C. and 4 ml/min and allowed to equilibrate for 30 minutes. Respiratory activity reflecting suprathreshold action potential (AP) firing from populations of neurons was recorded as XII bursts from either XII nerve roots and as population activity directly from the preBötC using suction electrodes and a MultiClamp 700A or 700B (Molecular Devices, Sunnyvale, Calif., USA), filtered at 2-4 kHz and digitized at 10 kHz. Digitized data were analyzed off-line using custom procedures written for IgorPro (Wavemetrics, Portland, Oreg., USA). Activity was full-wave rectified and digitally integrated with a Paynter filter with a time constant of 20 ms with either custom built electronics or using custom procedures in MATLAB (Mathworks, Natick, Mass., USA). Burst detection and analysis of respiratory-related activity recorded in full-wave rectified XII output or preBötC population recordings were performed using custom software written in IgorPro. Burst parameters were normalized to the mode of the data in the baseline condition. Although there are several proposed definitions of sighs in slice preparations, here we used “doublets” (double-peaked bursts) as the in vitro signature of sighs because, in our preparations, doublets detected both in preBötC neural population activity measurements and cranial nerve XII output recordings shared the increased inspiratory and expiratory duration of sighs. […] Measured doublet intervals were converted to a calculated per hour doublet rate.

gastrin releasing peptide [GRP]
sighing increased (fold) [1]: 8-16 fold
more doublets (fold) ([2]; 3 nM, mouse preBötC brain slices, p=0.003, n=9): 1.7 fold
fraction of total events that are doublets ([2]; preBötC slice, p<0.05, n=9): increasing
interval following a doublet ([2]; preBötC slice, p<0.05, n=9): decreasing
